Results as given in publication PMC2859821 (Molecular pharmaceutics, 2009).

How the values were obtained:
HeLa cells [1] = system: HeLa cells
HeLa cells [2] = settings: previously determined; cited from earlier work
HeLa cells [3] = system: HeLa cells; remark: listed apart in the source

| Substance | reduction of cell-associated fluorescence by KPBS (HeLa cells [1]) | total cell-associated fluorescence in cells incubated with KPBS, relative to control cells incubated with PBS (HeLa cells [1]) [%] | active uptake at 40 min relative to saturation level (HeLa cells [2]) | effect of MDC on diffuse and punctate fluorescence (HeLa cells [3]) | effect of cell energy-depletion on intracellular fluorescence (HeLa cells [3]) | intracellular fluorescence pattern in KPBS (HeLa cells [3]) | concentration at which diffuse (cytosolic/nuclear) fluorescence predominated (HeLa cells [3]; pH 7.4) | concentration at which punctate (vesicular) fluorescence predominated (HeLa cells [3]; pH 7.4) | effect of NH4Cl on diffused fluorescence (HeLa cells [3]) | effect of NH4Cl on punctate fluorescence (HeLa cells [3]) | effect of hypertonic sucrose on punctate and diffused fluorescence (HeLa cells [3]) |
| --- | --- | --- | --- | --- | --- | --- | --- | --- | --- | --- | --- |
| 5(6)-Carboxyfluorescein-R.I.-CKTat9 [Flu-R.I.-CKTat9] | more than 90% | 44.9 | greater than half of its saturation level | both types of fluorescence are greatly reduced | virtually abolished both the punctate and diffuse fluorescence | only green punctate fluorescence | above 7 μM | below 3 μM |  |  |  |
| rhodamine-R.I.-CKTat9 [Rho-R.I.-CKTat9] |  |  |  |  |  |  |  |  | completely abolished | had no effect | greatly reduced |
